# Measured values published in PMC11272584 (Nature Metabolism, 2024).
# Numbering of substitutions follows the chain as printed. Like-named read-outs stand apart in the source and are kept apart here.
# What was measured:
# WT GIPR = WT GIPR (Homo sapiens, UniProt P48546); conditions: for logEC50 (cAMP): mean of n = 3
# GIPR T25R = target: T1, GIPR T25R (Homo sapiens, UniProt P48546, T25R); conditions: GIPR T25R (ECD), mean, n = 5, duplicate
# T1 sequence (P48546 22-466 T25R): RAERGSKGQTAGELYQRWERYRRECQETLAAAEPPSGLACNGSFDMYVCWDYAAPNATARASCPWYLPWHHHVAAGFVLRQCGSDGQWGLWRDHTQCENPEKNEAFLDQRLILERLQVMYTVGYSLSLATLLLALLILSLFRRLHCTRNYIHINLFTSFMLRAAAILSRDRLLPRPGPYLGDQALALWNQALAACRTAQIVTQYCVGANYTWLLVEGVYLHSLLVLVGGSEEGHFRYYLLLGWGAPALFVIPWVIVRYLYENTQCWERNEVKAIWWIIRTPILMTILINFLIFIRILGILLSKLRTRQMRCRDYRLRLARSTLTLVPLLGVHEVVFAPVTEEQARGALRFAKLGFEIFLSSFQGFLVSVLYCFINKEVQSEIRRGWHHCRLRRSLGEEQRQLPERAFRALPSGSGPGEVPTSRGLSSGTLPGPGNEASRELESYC
# GIPR E461* = target: T2, GIPR E461* (Homo sapiens, UniProt P48546)
# T2 sequence (P48546 22-460 limits assumed): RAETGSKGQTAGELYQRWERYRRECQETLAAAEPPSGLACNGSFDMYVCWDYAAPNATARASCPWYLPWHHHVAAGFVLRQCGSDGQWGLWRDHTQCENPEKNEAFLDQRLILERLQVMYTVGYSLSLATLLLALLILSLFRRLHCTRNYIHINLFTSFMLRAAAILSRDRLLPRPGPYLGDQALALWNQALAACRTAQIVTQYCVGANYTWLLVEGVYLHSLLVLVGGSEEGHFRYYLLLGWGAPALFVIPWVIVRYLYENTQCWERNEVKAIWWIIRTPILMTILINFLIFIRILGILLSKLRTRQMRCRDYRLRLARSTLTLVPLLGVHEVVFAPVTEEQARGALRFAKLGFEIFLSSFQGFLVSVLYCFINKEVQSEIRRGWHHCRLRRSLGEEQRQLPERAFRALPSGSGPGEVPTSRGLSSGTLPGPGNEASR
# GIPR E418K = target: T3, GIPR E418K (Homo sapiens, UniProt P48546, E418K); conditions: HEK293A, 1 µM GIP minus vehicle, n = 4, P = 0.0142
# T3 sequence (P48546 22-466 E418K): T1 sequence (P48546 22-466 T25R) with R4T, E397K
# GIPR R164Q = target: T4, GIPR R164Q (Homo sapiens, UniProt P48546, R164Q); assay: cAMP accumulation; format: cell-based; set-up: host or cells: HEK293
# T4 sequence (P48546 22-466 R164Q): T1 sequence (P48546 22-466 T25R) with R4T, R143Q
# GIPR T168A = target: T5, GIPR T168A (Homo sapiens, UniProt P48546, T168A); assay: cAMP accumulation; format: cell-based; set-up: host or cells: HEK293
# T5 sequence (P48546 22-466 T168A): T1 sequence (P48546 22-466 T25R) with R4T, T147A
substance,measurement,setting,value
glucose-dependent insulinotropic polypeptide [GIP],logEC50 (cAMP),WT GIPR; 10 ng receptor DNA,-8.9
same,Potency of GIP (cAMP) with decreasing GIPR levels,WT GIPR; 10 ng to 10 µg receptor DNA,right shift towards lower potency
same,logEC50 (cAMP),WT GIPR; 50ng receptor DNA,-9.9
same,logEC50 (cAMP),WT GIPR; 100 ng receptor DNA,-9.6
same,logEC50 (cAMP),WT GIPR; 250 ng receptor DNA,-10.7
same,logEC50 (cAMP),WT GIPR; 500 ng receptor DNA,-11.5
same,logEC50 (cAMP),WT GIPR; 100 µg receptor DNA,-11.5
same,logEC50 (Arrestin),GIPR T25R; Hill slope 1.0,-9.3
same,Arrestin (Emax),GIPR T25R; normalized to WT GIPR,19
same,β-arrestin recruitment class,GIPR E461*; E461*,preserved β-arrestin recruitment
same,logEC50 (Arrestin),"GIPR E461*; GIPR E461* (ICD), Hill slope 1.0, mean, n = 3, duplicate",-9.2
same,Arrestin (Emax),"GIPR E461*; GIPR E461* (ICD), normalized to WT GIPR, mean, n = 3, duplicate",60
same,Mean of ΔBRET,GIPR E418K,0.0797
same,cAMP (Emax),"GIPR R164Q; HEK293, GIP(1–42) 1 pM–100 nM, 30 min 37 °C, mean of n = 6",135 % of WT GIPR activity
same,logEC50 (cAMP),"GIPR R164Q; HEK293, Hill slope 1.0, mean of n = 6",-10.8
same,cAMP (Emax),"GIPR T168A; HEK293, GIP(1–42) 1 pM–100 nM, 30 min 37 °C, mean of n = 4",28 % of WT GIPR activity
same,logEC50 (cAMP),"GIPR T168A; HEK293, Hill slope 1.0, mean of n = 4",-10.9
